The results in this text go back to ChEMBL document CHEMBL1153063 (Bioorg Med Chem Lett, 2009).

The chains behind the UniProt entries cited, without tags or fusion partners.
UniProt Q05941, whole entry: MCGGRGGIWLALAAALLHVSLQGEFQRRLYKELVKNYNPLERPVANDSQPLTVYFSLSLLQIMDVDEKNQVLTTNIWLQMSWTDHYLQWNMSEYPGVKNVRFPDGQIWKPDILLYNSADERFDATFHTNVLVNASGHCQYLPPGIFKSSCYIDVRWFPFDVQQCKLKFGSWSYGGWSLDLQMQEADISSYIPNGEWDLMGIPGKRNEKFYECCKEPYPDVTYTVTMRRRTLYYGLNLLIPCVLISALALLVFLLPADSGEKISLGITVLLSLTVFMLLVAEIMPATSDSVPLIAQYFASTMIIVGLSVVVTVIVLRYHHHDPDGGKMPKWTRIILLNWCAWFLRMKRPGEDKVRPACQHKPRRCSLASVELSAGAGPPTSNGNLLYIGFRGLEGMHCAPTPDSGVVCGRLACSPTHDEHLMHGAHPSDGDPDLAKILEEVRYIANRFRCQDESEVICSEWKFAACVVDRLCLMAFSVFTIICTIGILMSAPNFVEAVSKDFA

The term Ki denotes a measure of affinity in units of concentration, obtained from inhibition or displacement. A higher Ki goes with a looser hold on the target.

In the experiment the target is Neuronal acetylcholine receptor subunit alpha-7 (Rattus norvegicus, UniProt Q05941). Briefly: Displacement of [125I]BTX from rat alpha7 nAChR expressed in rat GH4C1 cells. The format is cell-based, GH4-C1. The procedure, abridged:
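GH₄C₁ cell binding with [¹²⁵I]-BTX; six-point dose–response curve in triplicate, values averaged.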
On the technique in general: In a radioligand displacement assay an active substance lowers the binding of a labelled ligand.

The compound `O=C(Oc1ccc(Br)cc1)N1CCN2CCC1CC2` [SSR180711] had an inhibitory constant (Ki) of 38 nM. This counts as double-digit nanomolar.
